# From PubChem BioAssay (EPA / NIEHS)
# By UniProt entry, the sequences of proteins in these tests, tags left out. Where a name states a change or a piece, a line headed by the entry shows the natural chain unless it says otherwise.
# UniProt Q96RI1: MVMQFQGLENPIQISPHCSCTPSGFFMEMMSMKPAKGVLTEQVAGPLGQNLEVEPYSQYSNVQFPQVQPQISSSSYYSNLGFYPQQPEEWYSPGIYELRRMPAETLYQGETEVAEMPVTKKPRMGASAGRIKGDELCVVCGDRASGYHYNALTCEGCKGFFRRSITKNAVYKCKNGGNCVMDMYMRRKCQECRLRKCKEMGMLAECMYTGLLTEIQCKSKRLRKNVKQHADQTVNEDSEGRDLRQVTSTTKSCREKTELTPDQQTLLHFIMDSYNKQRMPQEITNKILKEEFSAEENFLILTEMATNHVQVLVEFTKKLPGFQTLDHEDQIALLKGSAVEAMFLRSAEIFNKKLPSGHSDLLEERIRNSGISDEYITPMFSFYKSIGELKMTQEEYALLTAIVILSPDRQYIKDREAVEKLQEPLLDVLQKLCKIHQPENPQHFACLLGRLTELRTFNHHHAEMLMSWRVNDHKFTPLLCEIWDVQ
# UniProt P03372, whole entry, looked up: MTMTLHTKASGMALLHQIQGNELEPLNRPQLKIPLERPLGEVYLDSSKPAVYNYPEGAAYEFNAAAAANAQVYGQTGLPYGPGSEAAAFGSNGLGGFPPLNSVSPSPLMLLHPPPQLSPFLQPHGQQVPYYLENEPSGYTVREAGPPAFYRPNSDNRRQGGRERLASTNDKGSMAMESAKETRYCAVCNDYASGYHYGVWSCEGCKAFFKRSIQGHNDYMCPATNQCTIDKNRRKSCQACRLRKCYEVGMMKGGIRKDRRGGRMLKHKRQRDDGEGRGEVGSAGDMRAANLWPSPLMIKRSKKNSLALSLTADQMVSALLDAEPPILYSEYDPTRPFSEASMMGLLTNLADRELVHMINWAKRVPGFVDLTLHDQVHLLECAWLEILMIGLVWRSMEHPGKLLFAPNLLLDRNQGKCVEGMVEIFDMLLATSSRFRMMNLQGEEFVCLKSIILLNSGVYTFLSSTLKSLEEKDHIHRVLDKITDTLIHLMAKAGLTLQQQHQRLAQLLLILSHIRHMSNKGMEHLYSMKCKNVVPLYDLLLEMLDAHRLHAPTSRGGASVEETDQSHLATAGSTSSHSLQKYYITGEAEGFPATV
# UniProt Q92731, whole entry, looked up: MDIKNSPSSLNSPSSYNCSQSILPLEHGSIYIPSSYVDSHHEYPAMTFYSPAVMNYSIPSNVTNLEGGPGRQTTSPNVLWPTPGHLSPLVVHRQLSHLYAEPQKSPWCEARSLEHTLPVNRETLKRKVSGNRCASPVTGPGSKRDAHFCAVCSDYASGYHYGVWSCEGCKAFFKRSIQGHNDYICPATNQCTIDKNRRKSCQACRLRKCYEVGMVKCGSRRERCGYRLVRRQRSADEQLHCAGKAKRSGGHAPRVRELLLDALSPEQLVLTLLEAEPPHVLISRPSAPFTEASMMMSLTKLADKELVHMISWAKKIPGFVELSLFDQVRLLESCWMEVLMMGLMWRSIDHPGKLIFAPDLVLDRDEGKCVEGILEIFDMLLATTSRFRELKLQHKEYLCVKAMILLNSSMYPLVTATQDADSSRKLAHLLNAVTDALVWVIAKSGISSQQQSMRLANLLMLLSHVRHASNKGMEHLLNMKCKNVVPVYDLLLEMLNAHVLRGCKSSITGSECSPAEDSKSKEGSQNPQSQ
# Where “and” joins values, the source holds several entries; their conditions need not be identical. Equal entries are not always repeated. This is a selection; strong and weak results do not stand in their true shares. Records with an inconclusive call do not appear. Some compounds were tested as several samples or in several runs, with calls that do not always agree. Calls of active or inactive are those of the source. How the source made its calls, unless noted: active means hit-call score of the fitted dose curve at least 0.9, where 1 is the maximum; inactive means score below 0.9.
# Key:
# [1] = ATG_PPRE_CIS: Attagene CIS-FACTORIAL HepG2 Assay for human Peroxisome Proliferator-activated Response Element (PPRE) (AID 2282958); details: HepG2 PPRE cis-element reporter, Attagene transcription factor profiling; actives raise or lower the signal
# [2] = ATG_RORE_CIS: Attagene CIS-FACTORIAL HepG2 Assay for human RAR-related Orphan Receptor Element (RORE) (AID 2282959); details: HepG2 Attagene cis-factorial RORE reporter, mRNA; actives raise or lower the signal
# [3] = target: Bile acid receptor (Homo sapiens) (UniProt Q96RI1); test: OT_FXR_FXRSRC1_1440: Odyssey Thera (OT) 24-hour HEK293T Protein-Complementation Assay for Farnesoid X receptor/SRC-1 Co-activator (AID 2283384; active means hit-call score of the fitted dose curve at least 0.9, where 1 is the maximum)
# Summary of the method: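 Measures ligand-driven FXR–SRC-1 co-activator recruitment in HEK293T via fragment complementation, fluorescence intensity at 24 h. DMSO served as negative control and baseline for gain-of-signal fitting.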
# [4] = target: Estrogen receptor (Homo sapiens) + Estrogen receptor beta (Homo sapiens) (UniProt P03372+Q92731); test: OT_ER_ERaERb_1440: Odyssey Thera (OT) 24-hour HEK293T Protein-Complementation Assay for Estrogen Receptor-alpha/-beta Homodimer (AID 2283356; active means hit-call score of the fitted dose curve at least 0.9, where 1 is the maximum;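 further: heteromer of ER alpha and ER beta binding domains; hits raise reporter fluorescence and both agonists and antagonists give an increase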)
# Summary of the method: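 Stable HEK293T PCA line, ERα LBD 310-547 + ERβ LBD 263-489 fused to reporter fragments; 24 h treatment; fluorescence read by laser scanning cytometry; positive fitting direction relative to DMSO.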
compound,measurement,setting,value
CC(C)OC(=O)Nc1ccccc1,outcome,[1],inactive
COc1ccc(O)c(C(C)(C)C)c1,AC50,[1],active: 58.6 µM
same,AC50,[2],active: 83.5 µM
CCN(CC)c1ccccc1,outcome,[1],inactive
O=C(CCN1CC1)OCC(CO)(COC(=O)CCN1CC1)COC(=O)CCN1CC1,outcome,[1],inactive
COc1nc(C)nc(NC(=O)NS(=O)(=O)c2ccccc2Cl)n1,outcome,[1],inactive
COc1cc(Cl)c(OC)cc1Cl,AC50,[1],active: 14.4 µM
same,outcome,[2],inactive
CCCCOC(=O)c1ccccc1C(=O)OCCCC,AC50,[1],active: 55.6 µM and active: 100 µM and active: 50 µM
same,outcome,[1],inactive
CC(C)COC(=O)c1ccccc1C(=O)OCC(C)C,AC50,[1],active: 83.1 µM
CC[C@H](C)[C@H]1O[C@]2(C=C[C@@H]1C)C[C@@H]1C[C@@H](C/C=C(\C)[C@@H](O[C@H]3C[C@H](OC)[C@@H](O[C@H]4C[C@H](OC)[C@@H](O)[C@H](C)O4)[C@H](C)O3)[C@@H](C)/C=C/C=C3\CO[C@@H]4[C@H](O)C(C)=C[C@@H](C(=O)O1)[C@]34O)O2 (tested in a mixture with another compound),outcome,[1],inactive
same,outcome,[2],inactive
Nc1ccccc1C(=O)OCCc1ccccc1,outcome,[1],inactive
COP(=S)(OC)Oc1ccc(S(=O)(=O)N(C)C)cc1,outcome,[1],inactive
O=C(NC(=O)c1c(F)cccc1F)Nc1cc(Cl)c(OC(F)(F)C(F)C(F)(F)F)cc1Cl (centres undefined),outcome,[1],inactive
CN(C)[C@@H]1C(=O)C(C(N)=O)=C(O)[C@@]2(O)C(=O)C3=C(O)c4c(O)cccc4[C@@](C)(O)[C@H]3[C@H](O)[C@@H]12,outcome,[1],inactive
same,outcome,[2],inactive
Nc1ccc(N)cc1,outcome,[1],inactive
COP(=S)(OC)Oc1nc(Cl)c(Cl)cc1Cl,AC50,[1],active: 7.82 µM
COC(=O)c1ccccc1S(=O)(=O)NC(=O)Nc1nc(C)cc(C)n1,outcome,[1],inactive
same,outcome,[2],inactive
CCc1cccc(C)c1N(C(=O)CCl)C(C)COC (centres undefined),outcome,[1],inactive
same,outcome,[2],inactive
CCC(C)(c1ccc(O)cc1)c1ccc(O)cc1,AC50,[1],active: 50.2 µM
same,outcome,[1],inactive
Cl/C=C\C[N+]12CN3CN(CN(C3)C1)C2,outcome,[1],inactive
O=NN1CCCCCCC1,outcome,[1],inactive
same,outcome,[2],inactive
O=C(O)C(F)(F)C(F)(F)C(F)(F)C(F)(F)C(F)(F)C(F)(F)C(F)(F)C(F)(F)C(F)(F)C(F)(F)F,AC50,[1],active: 21.6 µM and active: 13.4 µM
O=NN1CCCCCC1,outcome,[1],inactive
Fc1ccc(C2(Cn3cncn3)OC2c2ccccc2Cl)cc1 (centres undefined),outcome,[1],inactive
O=C(CBr)c1ccc(O)cc1,outcome,[1],inactive
COc1cc2c(cc1OC)[C@@]13CCN4CC5=CCO[C@H]6CC(=O)N2[C@H]1[C@H]6[C@H]5C[C@H]43,outcome,[1],inactive
O=C(O)C(Br)Br,outcome,[1],inactive
CC(C)(C)c1ccc(CSc2cnn(C(C)(C)C)c(=O)c2Cl)cc1,AC50,[1],active: 0.592 µM
CC(C)=CC1C(C(=O)OCN2C(=O)C3=C(CCCC3)C2=O)C1(C)C (centres undefined),outcome,[1],inactive
C=C(C)C(=O)OCC(CC)CCCC (centres undefined),outcome,[1],inactive
Cc1cc(Cl)ccc1OCC(=O)O,AC50,[1],active: 21.4 µM
same,outcome,[1],inactive
CC(C)N(C(=O)CCl)c1ccccc1,outcome,[1],inactive
same,AC50,[2],active: 56.8 µM
Oc1cc(Cl)c(Cl)cc1Cl,AC50,[1],active: 27.7 µM
CCc1cccc(C)c1N(C(=O)CCl)[C@@H](C)COC,outcome,[1],inactive
same,outcome,[2],inactive
CCOc1cccc(C2(N3CCN(c4ccccc4)CC3)CCC(C)CC2)c1 (centres undefined),outcome,[1],inactive
C=CCC1=C(C)C(OC(=O)C2C(C=C(C)C)C2(C)C)CC1=O (centres undefined),AC50,[1],active: 13.7 µM [middle of 4 runs]
same,outcome,[1],inactive
C=CCO,outcome,[2],inactive
CN(C)c1ccccc1,outcome,[2],inactive
O=C=Nc1ccccc1,outcome,[1],inactive
same,outcome,[2],inactive
same,outcome,[3],inactive
O=C(O)COc1ccc(Cl)cc1,outcome,[2],inactive
CNC(=O)Oc1cccc2c1OC(C)(C)O2,outcome,[2],inactive
CCOP(=S)(Oc1ccc([N+](=O)[O-])cc1)c1ccccc1 (centres undefined),outcome,[2],inactive
C#CCN1C(=O)COc2cc(F)c(N3C(=O)C4=C(CCCC4)C3=O)cc21,outcome,[2],inactive
COP(=S)(OC)SCN1C(=O)c2ccccc2C1=O,outcome,[2],inactive
CCOP(=S)(OCC)SCSC(C)(C)C,outcome,[2],inactive
O=C(O)COc1ccccc1,outcome,[2],inactive
CC(C)(Cl)Cl,outcome,[2],inactive
O=S(=O)(c1ccc(O)cc1)c1ccc(O)cc1,outcome,[2],inactive
CC[C@H](C)[C@H]1O[C@]2(C=C[C@@H]1C)C[C@@H]1C[C@@H](C/C=C(\C)[C@@H](O[C@H]3C[C@H](OC)[C@@H](O[C@H]4C[C@H](OC)[C@@H](NC)[C@H](C)O4)[C@H](C)O3)[C@@H](C)/C=C/C=C3\CO[C@@H]4[C@H](O)C(C)=C[C@@H](C(=O)O1)[C@]34O)O2,outcome,[1],inactive
same,outcome,[4],inactive
